# From PubChem BioAssay
# B2AR arrestin – agonists driving beta-arrestin recruitment to human beta2-adrenergic receptor; P07550; beta-arrestin recruitment to beta2AR, cell-based reporter; Potency, µM (doses to about 46.1 µM), for the others: at the top dose activation, most hits filed as activators; 0.02% of 330,000 active;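 also: potency is read from the fitted curve at half-maximal effect; 0% = DMSO controls and full agonism = EC100 isoproterenol or metaproterenol; nearly all actives have a fitted effect of over 65% in size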
# miR-21 reporter – miR-21 reporter, rising signal | HeLa miR-21 FLuc reporter, luciferase, 48 h | Potency, µM (doses to about 38.3 µM), inactives show at the top dose reporter change, positive = more light | 340,000 tested, under 10 active | AID 2288; active = well fitted rising curve with a large enough effect; inconclusive = small, poorly fitted or top-dose-only effect; inactive = no such curve, though single readings can be large or run the other way;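 note: % of control where 0% means no effect; miR-21 action dims this reporter so a rising signal means less miR-21 action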
#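 Compounds were titrated across several concentrations (up to approximately 40 uM) and incubated 48 hours with HeLa miR-21-FLuc reporter cells (miR-21 target sequence downstream of FLuc, endogenous miR-21). Readout was firefly luciferase luminescence after lytic detection reagent.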
# PKM2 activator – PKM2 (human) enzyme activation; P14618; purified PKM2, Kinase-Glo ATP luminescence, activation; response scale: 0% is enzyme alone, no compound; Potency, µM (top dose mostly 57.5 µM), inactives show at the top dose activation, usual class: activators; 0.34% of 260,000 active; also: potency is read from the fitted curve at half-maximal effect; % is scaled to controls: 0 for no effect and ±100 for the full control effect; nearly all actives have a fitted effect of over 55% in size
#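 hPK-M2, >95% pure; 0.1 mM ADP / 0.5 mM PEP final; imidazole pH7.2 buffer w/ 7 mM MgCl2, 50 mM KCl; 1 h RT; Kinase-Glo lum. Intermediate enzyme activity for dual inhibitor/activator qHTS.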
# PINK1 modulator – PINK1 expression modulation; Potency, µM (doses to about 76.6 µM), without a hit: top-dose activation (PINK1 increase), actives largely listed as activators; AID 624263; 0.2% of 410,000 active; PINK1 immunofluorescence, high-content cytometry, 24 h; active = well fitted activation curve with a large enough effect; inconclusive = small, poorly fitted or top-dose-only effect; cell line not stated here; also: potency is read from the fitted curve at half-maximal effect; % of control where 0% means no effect; nearly all actives have a fitted effect of over 65% in size
#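 Compound titrations (5 concentrations, 24 h) on a stable cell line; DMSO and CCCP controls. Endpoint: fixed-cell PINK1 immunofluorescence with mitochondrial, cell and nuclear markers, scanned by microplate cytometer.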
# Chronic BCR inh – inhibitors of chronic active B-cell receptor signaling | ABC-DLBCL IkBa-CBG/CBR reporter, luminescence ratio, 4 h | 0.05% of 340,000 active | Potency, µM (highest dose often 46.1 µM), inactives show at the highest dose activity change, negative = inhibition, actives largely listed as inhibitors; active = well fitted inhibition curve with a large enough effect in the signal ratio, with a control signal flat, not every such curve was filed as active; inconclusive = small, poorly fitted or top-dose-only effect, or effect the other way, or a change in a side signal; the % refers to the signal ratio;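 also: potency is read from the fitted curve at half-maximal effect; plate controls were basal doxycycline-induced cells for no effect and cells given 10 µM MG132 for full effect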
#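 Doxycycline induced both beetle luciferases in TMD8 lymphoma cells; IKK-driven degradation limits the IkappaBalpha-fused green signal, while red luminescence normalises for cell number and nonspecific effects. Compounds tested up to 46 uM, 4 hrs.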
# Pin1 inhibitor – human Pin1 inhibition; Q13526; Pin1 FP peptide displacement, HiFluor488, 10 min; Potency, µM (top dose mostly 115 µM), for inactives: at the highest dose activity, negative = inhibition, most hits filed as inhibitors; 0.009% of 390,000 active; active = well fitted inhibition curve with a large enough effect in the polarisation, with a control signal flat, not every such curve was filed as active; inconclusive = small, poorly fitted or top-dose-only effect, or effect the other way, or a change in a side signal; inactive = no such curve, though single readings can be large or run the other way; the % refers to the polarisation; also: potency is read from the fitted curve at half-maximal effect; % is scaled to controls: 0 for no effect and ±100 for the full control effect
# * hit, by the source's call; ? = inconclusive; . = no result given; [ ] = dose if it differs, or a comment. This is a sample that favours compounds with a hit; in the whole collection about 0.46% have one here. Unless noted, calls follow the shape of the dose curve; as a rule, active = well fitted curve in the direction sought with a large enough effect; inconclusive = small, poorly fitted or top-dose-only effect, or another doubt; inactive = no such curve, though single readings can be large; an effect the other way counts as inactive or inconclusive.
# Labels used below: A = B2AR arrestin; B = miR-21 reporter; C = PKM2 activator; D = PINK1 modulator; E = Chronic BCR inh; F = Pin1 inhibitor
1) CCC1C(=O)NCCN1Cc1ccc2c(c1)CN(Cc1cccn1-c1ccc(Cl)cn1)CCO2 (configuration not stated)
  A: .; B: .; C: .; D: 1.8%; E: .; F: .
2) CC(=O)Nc1ccc(Oc2cc(C#N)c(C#N)cc2N2CCCCCC2)cc1
  A: 14.3%; B: 12.2%; C: 6.2%; D: -0.8%; E: -5.0%; F: 15.5%
3) CC(=O)Nc1ccc(Oc2cc(C#N)c(C#N)cc2N2CCOCC2)cc1
  A: 0.2%; B: -11.5%; C: -3.0%; D: 3.3%; E: 20.6µM*; F: -0.5%
4) N#CC(C(=S)Nc1ccccc1)c1nc2ccccc2[nH]1 (configuration not stated)
  A: 1.78µM*; B: 9.8%; C: -4.6%; D: ?; E: ?; F: 19.0%
5) CN1C(=O)C(N=Nc2ccc([N+](=O)[O-])cc2)SC1=S (configuration not stated)
  A: .; B: .; C: .; D: 44.7µM*; E: .; F: -14.9%
6) COC(=O)c1ccccc1C(=O)NCC1Cc2cc(-c3nc(C)cnc3C)ccc2O1 (configuration not stated)
  A: .; B: .; C: .; D: 0.4%; E: .; F: .
7) Cc1cc(N2C(=O)C(O)=C(C(=O)c3cc4ccccc4o3)C2c2ccc(OC(C)C)cc2)no1 (configuration not stated)
  A: 0.0%; B: -12.8%; C: -5.6%[0.46 µM]; D: 28.2µM*; E: -0.2%; F: -0.8%
8) COC(=O)c1ccc(C2C(C(=O)c3cc4ccccc4o3)=C(O)C(=O)N2c2cc(C)on2)cc1 (configuration not stated)
  A: 0.1%; B: -3.8%; C: .; D: 1.4%; E: ?; F: 43.3%
9) N=c1c2c(n(Cc3ccc(Br)cc3)c3c1CCC3)CCCC2
  A: -3.2%; B: ?; C: 6.5%; D: 35.5µM*; E: ?; F: -1.2%
10) O=C(NCCN1Cc2ccccc2OC(c2ccccc2F)C1)c1ccco1 (configuration not stated)
  A: .; B: .; C: .; D: -0.7%; E: .; F: .

# (listing goes on)
# Labels used below: A = B2AR arrestin; B = miR-21 reporter; C = PKM2 activator; D = PINK1 modulator; E = Chronic BCR inh; F = Pin1 inhibitor
11) COc1ccccc1N1CCN(c2nc(CNC(=O)c3cc(C)oc3C)nc3ccccc23)CC1
  A: .; B: .; C: .; D: 2.5%; E: .; F: .
12) Cc1cnc(-n2ncc(C(=O)NCCc3cccnc3)c2C)nc1-c1cccs1
  A: .; B: .; C: .; D: 1.5%; E: .; F: .
13) COc1ccc(-n2c(SC3CCOC3=O)nc3ccccc3c2=O)cc1OC (configuration not stated)
  A: 0.5%; B: -14.7%; C: -0.4%; D: 10µM*; E: 1.6%; F: -11.3%
14) Cc1nc(SCC(=O)Nc2c(C)n(C)n(-c3ccccc3)c2=O)c(C#N)c(C)c1C
  A: 0.0%; B: .; C: .; D: 1.7%; E: -0.1%; F: 5.7%
15) CCCc1cc(SCC(=O)Nc2c(C)n(C)n(-c3ccccc3)c2=O)n2c(nc3ccccc32)c1C#N
  A: 3.55µM*; B: 5.2%; C: -17.2%; D: -0.4%; E: ?; F: 4.6%
16) C[C@@H]1CN(Cc2ccc3c(c2)CN(Cc2cccn2-c2cccnc2)CCO3)C[C@H](C)O1
  A: .; B: .; C: .; D: -1.1%; E: .; F: .
17) N#CC1=C(N)N2C(=C(C#N)C1c1cccc(Br)c1)Nc1ccccc12 (configuration not stated)
  A: -0.3%; B: -6.7%; C: -2.9%; D: 3.16µM*; E: ?; F: 6.1%
18) CCOc1ccccc1Oc1nc(C)nc2c1oc1ccccc12
  A: .; B: ?; C: .; D: 11.1%; E: 12.6µM*; F: 3.0%
19) CCOc1ccccc1Oc1ncnc2c1oc1ccccc12
  A: .; B: 22.9%; C: .; D: 6.8%; E: ?; F: -5.6%
20) CC(=O)Nc1ccc(NC(=O)C(C)OC(=O)c2ccccc2NS(=O)(=O)c2cccs2)cc1 (configuration not stated)
  A: -0.5%; B: -3.6%; C: 2.3%; D: -0.2%; E: -6.9%; F: 1.2%

# (list continues)
# Labels used below: A = B2AR arrestin; B = miR-21 reporter; C = PKM2 activator; D = PINK1 modulator; E = Chronic BCR inh; F = Pin1 inhibitor
21) Cc1cccc(NC(=O)C(C)OC(=O)c2ccccc2NS(=O)(=O)c2cc(C)c(C)c([N+](=O)[O-])c2)c1 (configuration not stated)
  A: -0.1%; B: -0.8%; C: 0.5%; D: 20µM*; E: -4.8%; F: 6.3%
22) Cc1cc(O)c(Sc2ncn[nH]2)cc1NS(=O)(=O)c1ccc(Cl)cc1
  A: 2.9%; B: .; C: .; D: 1.8%; E: -7.7%; F: -5.6%
23) O=S(=O)(Nc1cc(Sc2ncn[nH]2)c(O)c2ccccc12)c1ccccc1
  A: 0.1%; B: ?; C: -15.3%; D: -1.3%; E: ?; F: 44.7µM*
24) CC(=O)c1ccc(NC(=O)Nc2ccc3snnc3c2)cc1
  A: .; B: -1.4%; C: .; D: ?; E: .; F: ?
25) O=C(Nc1ccc(F)cc1)Nc1ccc2snnc2c1
  A: .; B: 26.7%; C: .; D: 31.6µM*; E: .; F: -9.3%
26) CNC(=O)C1CCN(c2nc(-c3ccc(Br)cc3)cs2)CC1
  A: .; B: .; C: .; D: .; E: .; F: -5.0%
27) Cn1c(=O)oc2cc(S(=O)(=O)Nc3ccccc3)ccc21
  A: 0.1%; B: -4.5%; C: 2.51µM*; D: -1.7%; E: -3.6%; F: -1.5%
28) COc1ccc(NS(=O)(=O)c2ccc3c(c2)oc(=O)n3C)cc1Cl
  A: 0.5%; B: 10.1%; C: .; D: 0.3%; E: -0.5%; F: -2.7%
29) Cn1c(=O)oc2cc(S(=O)(=O)Nc3ccc4c(c3)OCO4)ccc21
  A: -0.2%; B: -11.7%; C: 7.94µM*; D: 1.1%; E: ?; F: 14.9%
30) CC(=O)c1cccc(NS(=O)(=O)c2ccc3c(c2)oc(=O)n3C)c1
  A: -0.1%; B: -0.6%; C: ?; D: 1.4%[38.3 µM]; E: -0.2%; F: -0.4%

# Following part.
# Labels used below: A = B2AR arrestin; B = miR-21 reporter; C = PKM2 activator; D = PINK1 modulator; E = Chronic BCR inh; F = Pin1 inhibitor
31) CCc1cccc(NS(=O)(=O)c2ccc3c(c2)oc(=O)n3C)c1
  A: -0.1%; B: 9.3%; C: 3.16µM*; D: 0.1%; E: -0.4%; F: 1.8%
32) COc1ccc(S(=O)(=O)Nc2ccc3c(c2)OCO3)cc1
  A: -0.5%; B: -4.3%; C: 25.1µM*; D: -5.4%[38.3 µM]; E: 0.7%; F: -6.3%
33) CCc1cccc(NS(=O)(=O)c2ccc3c(c2)n(C)c(=O)c(=O)n3C)c1
  A: .; B: 13.7%; C: .; D: 1.2%; E: .; F: -6.7%
34) COc1ccc(S(=O)(=O)Nc2ccc3c(c2)OCO3)cc1C
  A: -0.2%; B: -3.2%; C: 19.8%; D: -1.9%[38.3 µM]; E: -11.2%; F: 5.2%
35) COc1ccccc1C(=O)N(Cc1cc2cc3c(cc2nc1N(C)C)OCO3)CC1CCCO1 (configuration not stated)
  A: .; B: .; C: .; D: 2.0%; E: .; F: .
36) O=C1CCc2cc(S(=O)(=O)Nc3cccc(C(F)(F)F)c3)ccc2N1
  A: .; B: .; C: .; D: .; E: .; F: 2.6%
37) CC(C)(CNC(=O)c1cnn(-c2nccc(-c3cc4ccccc4o3)n2)c1C1CC1)N1CCOCC1
  A: .; B: .; C: .; D: 0.1%; E: .; F: .
38) CC1=NN(Cc2ccccc2)C(=O)C1C(c1ccc(Cl)cc1)C(C#N)C#N (configuration not stated)
  A: -1.3%; B: 4.2%; C: 12.6%; D: ?; E: 20.6µM*; F: 0.6%
39) CC1=NN(Cc2ccccc2)C(=O)C1C(c1ccccc1)C(C#N)C#N (configuration not stated)
  A: -0.2%; B: 3.7%; C: 2.4%; D: 2.4%; E: ?; F: -8.3%
40) CCOc1cccc2cc(C(=O)NCc3cccnc3)c(=O)oc12
  A: 1.0%; B: -9.5%; C: -14.1%; D: 11.2µM*; E: 9.3%; F: -1.3%

# Retrieved by compound from the list above:
# Labels used below: A = B2AR arrestin; B = miR-21 reporter; C = PKM2 activator; D = PINK1 modulator; E = Chronic BCR inh; F = Pin1 inhibitor
32) COc1ccc(S(=O)(=O)Nc2ccc3c(c2)OCO3)cc1
  A: -0.5%; B: -4.3%; C: 25.1µM*; D: -5.4%[38.3 µM]; E: 0.7%; F: -6.3%
35) COc1ccccc1C(=O)N(Cc1cc2cc3c(cc2nc1N(C)C)OCO3)CC1CCCO1 (configuration not stated)
  A: .; B: .; C: .; D: 2.0%; E: .; F: .
34) COc1ccc(S(=O)(=O)Nc2ccc3c(c2)OCO3)cc1C
  A: -0.2%; B: -3.2%; C: 19.8%; D: -1.9%[38.3 µM]; E: -11.2%; F: 5.2%

# (next part)
# Labels used below: A = B2AR arrestin; B = miR-21 reporter; C = PKM2 activator; D = PINK1 modulator; E = Chronic BCR inh; F = Pin1 inhibitor
41) O=S(=O)(c1ccccc1)n1ccc2ccccc21
  A: -0.2%; B: 0.7%; C: 15.2%; D: -0.6%; E: -8.2%; F: 2.8%
42) Cc1cc(C)c(S(=O)(=O)n2ccc3ccccc32)c(C)c1
  A: 0.2%; B: 11.5%; C: -1.6%; D: 39.8µM*; E: ?; F: 0.4%
43) Cn1cncc1CNc1ncnc2ccc(-c3ccc4c(c3)OCO4)cc12
  A: .; B: .; C: .; D: .; E: .; F: -0.1%
44) c1ccc(N=c2nc(-c3ccccc3)n(-c3ccccc3)s2)cc1
  A: .; B: .; C: .; D: 15.8µM*; E: .; F: 7.3%
